Measurements: patent EP4682144A1, “SOLID FORM OF PYRROLIDONE DERIVATIVE AS GLUCOKINASE ACTIVATOR” (Hua Medicine (Shanghai) Ltd., priority 2023, dated 2024)
Structures can show the parent of a compound that is named as a salt.

Columns and labels:
[1] = Dynamic vapour sorption (DVS) test; format: physicochemical; settings: 25 °C
Experimental: A dynamic vapour sorption (DVS) test was conducted on crystal form A of the free state and crystal form B of the hydrochloride.
A certain amount of powder was taken and put into a sample pan, and hygroscopicity of the sample was evaluated with DVS according to the following instrument method: […]

[2] = Stability test in simulated gastric fluid (SGF); format: in vitro ADME; settings: 24 hours
[3] = Stability test in simulated intestinal fluid (SIF); format: in vitro ADME

Row | SMILES | Water sorption capacity at 80%RH, % ([1]; 80%RH) [%] | Water sorption capacity at 90%RH, % ([1]; 90%RH) [%] | Water sorption capacity at 95%RH, % ([1]; 95%RH) [%] | stability in SGF [2] | stability in SIF [3]
1 | CC(C)C[C@@H](C(=O)Nc1ccn(C[C@@H](O)COC(=O)c2cccnc2)n1)N1CC(Oc2ccccc2Cl)=CC1=O [Hydrochloride crystal form B] | 0.455 | 0.625 | 1.046 |  | 
2 | CC(C)C[C@@H](C(=O)Nc1ccn(C[C@@H](O)COC(=O)c2cccnc2)n1)N1CC(Oc2ccccc2Cl)=CC1=O [Compound A, (R)-3-(3-((S)-2-(4-(2-chlorophenoxy)-2-oxo-2,5-dihydro-1H-pyrrol-1-yl)-4-methylpentanamido)-1H-pyrazol-1-yl)-2-hydroxypropyl nicotinate] |  |  |  | stable | extensively degraded
